Results on one substance are retold here after patent US20150126388A1, “SURFACE ENHANCED RAMAN SPECTROSCOPY (SERS) MARKER CONJUGATES AND METHODS OF THEIR PREPARATION” (Agency for Science, Technolgy and Research, priority 2012, published 2015).

The data set has as its system OSCC cells. Briefly: Cell viability study (CCK8) in OSCC cells. It counts as cell-based. The following applies: 24 hours incubation, FIG. 7. Here is the method: Five thousand OSCC cells were seeded in a 96-well plate for 24 hours before introducing each well with EGFR-PEG Os—Au nanoparticles (OM-NP(PEG)-L constructs) (43 pM). The OSCC cells were allowed to incubate for another 24 hours, after which 10 μl of CCK8 (cell counting proliferation kit, Sigma-Aldrich) was added to each well. Cell absorbance was measured with a SpectraMax 384 Plus spectral analyser after 4 hours at 450 nm excitation.
The cytotoxicity of these OM-NP(PEG)-L constructs were assessed with the OSCC cell line (epidermoid carcinoma), in which EGFR is frequently overexpressed.

Turning to Os3(CO)10(μ-H)2, the “cytotoxicity to OSCC cells” value is recorded as “clearly cytotoxic”.
